## Yeast mating assay B: variants of the scFv Ab-14

Values reported by Li et al. 2023, doi:10.1038/s41467-023-39022-2 (FLAb copy).

Target peptide (SARS-CoV-2 spike, HR2 region): PDVDLGDISGINAS

Parent scFv Ab-14: VH joined to VL by three GGGGS repeats. Changes lie in the light chain CDRs alone.
VH: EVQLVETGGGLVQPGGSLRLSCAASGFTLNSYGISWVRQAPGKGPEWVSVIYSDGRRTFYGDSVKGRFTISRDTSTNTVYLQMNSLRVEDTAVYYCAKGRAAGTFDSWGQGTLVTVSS
VL: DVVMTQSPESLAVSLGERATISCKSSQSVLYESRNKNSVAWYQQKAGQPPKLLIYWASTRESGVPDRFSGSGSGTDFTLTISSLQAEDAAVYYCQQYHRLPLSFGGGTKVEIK

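The parent was found by panning a naive human phage display library on the peptide. This is the validation round: designs drawn from the data on random variants, tested in the same kind of assay. Several design methods are mixed in this list. The scFvs were displayed on barcoded MATa yeast, the peptide on MATalpha yeast. Pairs that bind mate more often; barcode pairs of the diploids are counted by sequencing. The ratio of observed to expected reads was calibrated, replicate by replicate, on BCL2-family standards whose Kd was known from biolayer interferometry. The assay was run in six technical replicates.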

Each variant is given by its three light chain CDRs, as the data file delimits them; those of the parent are KSSQSVLYESRNKNSVA, WASTRES, QQYHRLPLS.
This list holds designs with at most six substitutions.
Kd is apparent (estimated from mating counts) and averaged on the log scale over replicates with a signal. Smaller is tighter.
"no signal" marks a missing value. The strain was present, yet no cells mated with the target were sequenced in any replicate, which points to weak or no binding.
Nonspecific signal, from three strains lacking the peptide, appeared in 4% of pairings of all light chain designs, centred on 430 nM (5% of these signals below 38 nM); values are not corrected for it. For each scFv, signals with the empty controls are counted beside the result.
Of ten entries with the parent sequence, four were seen in most replicates (averages 2.2 nM to 240 nM), three in one and three in none, so single entries are noisy.
The authors' rule: three or more of the six replicates give a measured affinity, fewer mean a poor binder.
Values of this round are not directly comparable with the first-round values of the same sequences.

* KMSQSVLYESRNKNSVA | QASTRES | EQPHWLPLS -> 420 pM (6 of 6 replicates; controls 0 of 18)
* KFSGSQLYESRNKNSVA | NASTRES | QQYRRLPLS -> 540 pM (6 of 6 replicates; controls 0 of 18)
* KYSQLVGEESRNKNSVA | NASTREE | QQYHRLPLS -> 1.1 nM (6 of 6 replicates; controls 0 of 18)
* KLSQSTLYESRNKNSVA | WASTREY | QQYNRLPLS -> 8.4 nM (6 of 6 replicates; controls 0 of 18)
* KLKQSVLYESRNKNSVA | NASQRES | QQYHRLPLS -> 150 pM (6 of 6 replicates; controls 0 of 18)
* KLPQSVLYESRNKNSVA | SASTRES | QQYARLTLS -> 25 nM (6 of 6 replicates; controls 2 of 18)
* KVSQSVLMESRNCNSVA | DASTRES | QQYHRLPLS -> 1.1 nM (6 of 6 replicates; controls 0 of 18)
* KFSPSVLYESRNKNSVA | NASTRES | QQYHRLPLS -> 15 nM (6 of 6 replicates; controls 0 of 18)
* KLSQSVLYESRNSNNVA | NASTRES | QQYHRLPLS -> 810 pM (6 of 6 replicates; controls 1 of 18)
* KSSQSTLYESSNVNSVA | RASTRES | QMYHRLPLS -> 38 nM (4 of 6 replicates; controls 0 of 18)
* KTGQGVLYESRNKNSVA | GASTRES | QQYHRLPLS -> 1.4 nM (6 of 6 replicates; controls 2 of 18)
* KSSQSVLYESRGKNSVA | WASTRES | QQYHRLPLE -> 57 nM (2 of 6 replicates; controls 0 of 18)
* KSSQSVLYESRNANSVA | GASTRES | QQYQRLPLM -> 240 pM (5 of 6 replicates; controls 0 of 18)
* HLSQSVPYESRNKNSVA | NASTREE | QQYHRLPLS -> 580 pM (6 of 6 replicates; controls 1 of 18)
* KLSMSVLYESRNKNSVA | NASTRLS | QQYHRLPLS -> 960 pM (6 of 6 replicates; controls 0 of 18)
* HSSPSVLYESRMKNSVA | NASTRES | QQYHRLPLS -> 43 nM (6 of 6 replicates; controls 0 of 18)
* KVSQSVLYESRNSNSVA | DASTRES | QQYHRLPLS -> 720 pM (6 of 6 replicates; controls 1 of 18)
* LLMQSVLYESRNKNSVA | HASLRED | QQYHRLPLS -> 49 nM (5 of 6 replicates; controls 0 of 18)
* KLSQSDLYESRNKNSVA | NASTREQ | QQYHRLPLS -> 750 pM (6 of 6 replicates; controls 1 of 18)
* KFSQSVLYESRDKNSVA | NAVTRET | QQYHRLPLS -> 510 pM (6 of 6 replicates; controls 1 of 18)
* KLPFSVLYESRNKNSVA | EASTRES | QQYHRLPLS -> 1.9 nM (6 of 6 replicates; controls 0 of 18)
* KISQSVWYESRNKNSVA | EASTRES | QQYHRLPLS -> 220 pM (6 of 6 replicates; controls 2 of 18)
* KLSQSVPYESRNKNSVA | NASTRSS | QQYHRLPLS -> 740 pM (6 of 6 replicates; controls 1 of 18)
* KLEQSEPYESRNKNSVA | NASQRES | QQYHRLPLS -> 1.1 nM (6 of 6 replicates; controls 1 of 18)
* KSSQSVLMESRNKNSVA | WAETRES | QQYHRLPLE -> 1.0 µM (3 of 6 replicates; controls 1 of 18)
* KSSQSVLYESRNKNHVA | WASTREE | QQYHRLPLS -> no signal (0 of 6 replicates; controls 0 of 18)
* KQSQSDLSESRNKNSVA | DASTRES | QQYHRLPLS -> 940 pM (6 of 6 replicates; controls 0 of 18)
* KLSQSVLYESRNKNSVA | GASTRED | QQYHRLPLS -> 2.0 nM (6 of 6 replicates; controls 1 of 18)
* KSSQSVLYESGNKNSVA | WASTRES | QQYHRLPCS -> 230 nM (3 of 6 replicates; controls 1 of 18)
* KLPQGALYESRNKNSVA | GASTRES | QQYHRLPLS -> 630 pM (6 of 6 replicates; controls 1 of 18)
* KVSESQLYESRNFNSVA | NASTREE | QQYHRLPLS -> 2.0 nM (6 of 6 replicates; controls 2 of 18)
* KCSQSVLYESTNKNSVA | HASTRES | QQYHRLPLS -> 3.6 nM (6 of 6 replicates; controls 0 of 18)
* KDSQSVEYERRNKNSVA | SASTRES | QQYHRLPLS -> 1.5 nM (6 of 6 replicates; controls 1 of 18)
* KFSQSVWYESRTKNSVA | NASTRES | QQYHRLPLS -> 930 pM (6 of 6 replicates; controls 2 of 18)
* KLPQSVLYESRNKNSVA | QASTRLS | QQYHRLPLS -> 2.0 nM (6 of 6 replicates; controls 1 of 18)
* KMSQSVWYESRNKNSVA | WASTRES | QQYHRLPLS -> 11 nM (1 of 6 replicates; controls 0 of 18)
* KSSQSVLYEYRNKNSVA | WASTRES | QQYHRLPVS -> 43 nM (1 of 6 replicates; controls 0 of 18)
* KLSQSWLYESRNFWSVA | GASTRES | QQYHRLPLS -> 1.9 nM (6 of 6 replicates; controls 1 of 18)
* KSSQSVLYGSRNKNSVA | WASTRES | QQYHRLPLS -> 190 nM (6 of 6 replicates; controls 0 of 18)
* SSSWSVLYESRNKNSVA | WASERES | QSYHRLPLS -> no signal (0 of 6 replicates; controls 0 of 18)
* KASQSGLYESRVKNSVA | SASMRES | QQYHRLPLS -> 6.8 nM (6 of 6 replicates; controls 0 of 18)
* KSSQSVLTESRNKNSVA | WASTREN | QQYHRLPLS -> no signal (0 of 6 replicates; controls 1 of 18)
* HVSPSVPYESRNKNSVA | NASTRES | QQYHRLPLS -> no signal (0 of 6 replicates; controls 0 of 18)
* KSSQSTLYESENKNSVA | WASTRES | QQYHRLPLS -> 25 nM (5 of 6 replicates; controls 0 of 18)
* KSSFSYLGESRNKNSVA | EASTRES | QQYHRLPLS -> 990 pM (6 of 6 replicates; controls 3 of 18)
* KLSMSVLYESRNKNAVA | EASTRES | QQYHRLPLS -> 680 pM (6 of 6 replicates; controls 1 of 18)
* KSSQSVLYESVNKNSVA | WASTRES | QQYHRLPLC -> 14 nM (2 of 6 replicates; controls 0 of 18)
* KLSQSGLYESRNKWSVA | NASTRES | QQYHRLPLS -> 880 pM (6 of 6 replicates; controls 1 of 18)
* KVSQSVLYESRNKNSVA | HASTRCS | QQYHRLPLS -> 1.4 nM (6 of 6 replicates; controls 1 of 18)
* KFSQWVLYESRCKNSVA | NASTRES | QQYHRLPLS -> 91 nM (6 of 6 replicates; controls 0 of 18)
* KSSQSVLFESRNKNSVA | WASTRES | QYYMRLPLS -> no signal (0 of 6 replicates; controls 0 of 18)
* LSSISYLYESGNKNSVA | EASTRES | QQYHRLPLS -> 4.5 nM (5 of 6 replicates; controls 0 of 18)